These are literature values, as cited in patent US20100124560A1, “MULTI PORTION INTRA-ORAL DOSAGE FORM AND USE THEREOF” (McNEIL AB, priority 2008, published 2010).

Structures are written as SMILES.

With `NC(=O)C[C@H](N)C(=O)O` [Aspargine], the “Solubility in water” value is reported as 25.1 g/kg.
